Assay [1] is filed under the species Homo sapiens. The assay can be described thus: Ratio of relative binding affinity for human ERalpha LBD to relative binding affinity to human ERbeta LBD.
For assay [2], the species on record is Homo sapiens. The assay can be described thus: Ratio of Ki for human ERbeta LBD to Ki for human ERalpha LBD.

For `COc1cc(/C=C/c2ccc(OS(=O)(=O)C3CC4OC3C(c3ccc(O)cc3)=C4c3ccc(O)cc3)cc2)cc(OC)c1` (configuration not stated), the Ratio in the assay filed under Homo sapiens [1] amounted to 1.78. Further, in the assay filed under Homo sapiens [2], the Ratio Ki was 2.11.

Source of the values: ChEMBL document CHEMBL4196131 (J Med Chem, 2018).
